Source: patent US20230265065A1 (WEST VIRGINIA UNIVERSITY BOARD OF GOVERNORS ON BEHALF OF …, priority 2020, published 2023)
Read-outs that look alike come from different tables or passages of the source.

Amino acid sequences for entries named in this document (tags omitted). Residues count along the entry.
UniProt P23468, 21-1912 limits assumed: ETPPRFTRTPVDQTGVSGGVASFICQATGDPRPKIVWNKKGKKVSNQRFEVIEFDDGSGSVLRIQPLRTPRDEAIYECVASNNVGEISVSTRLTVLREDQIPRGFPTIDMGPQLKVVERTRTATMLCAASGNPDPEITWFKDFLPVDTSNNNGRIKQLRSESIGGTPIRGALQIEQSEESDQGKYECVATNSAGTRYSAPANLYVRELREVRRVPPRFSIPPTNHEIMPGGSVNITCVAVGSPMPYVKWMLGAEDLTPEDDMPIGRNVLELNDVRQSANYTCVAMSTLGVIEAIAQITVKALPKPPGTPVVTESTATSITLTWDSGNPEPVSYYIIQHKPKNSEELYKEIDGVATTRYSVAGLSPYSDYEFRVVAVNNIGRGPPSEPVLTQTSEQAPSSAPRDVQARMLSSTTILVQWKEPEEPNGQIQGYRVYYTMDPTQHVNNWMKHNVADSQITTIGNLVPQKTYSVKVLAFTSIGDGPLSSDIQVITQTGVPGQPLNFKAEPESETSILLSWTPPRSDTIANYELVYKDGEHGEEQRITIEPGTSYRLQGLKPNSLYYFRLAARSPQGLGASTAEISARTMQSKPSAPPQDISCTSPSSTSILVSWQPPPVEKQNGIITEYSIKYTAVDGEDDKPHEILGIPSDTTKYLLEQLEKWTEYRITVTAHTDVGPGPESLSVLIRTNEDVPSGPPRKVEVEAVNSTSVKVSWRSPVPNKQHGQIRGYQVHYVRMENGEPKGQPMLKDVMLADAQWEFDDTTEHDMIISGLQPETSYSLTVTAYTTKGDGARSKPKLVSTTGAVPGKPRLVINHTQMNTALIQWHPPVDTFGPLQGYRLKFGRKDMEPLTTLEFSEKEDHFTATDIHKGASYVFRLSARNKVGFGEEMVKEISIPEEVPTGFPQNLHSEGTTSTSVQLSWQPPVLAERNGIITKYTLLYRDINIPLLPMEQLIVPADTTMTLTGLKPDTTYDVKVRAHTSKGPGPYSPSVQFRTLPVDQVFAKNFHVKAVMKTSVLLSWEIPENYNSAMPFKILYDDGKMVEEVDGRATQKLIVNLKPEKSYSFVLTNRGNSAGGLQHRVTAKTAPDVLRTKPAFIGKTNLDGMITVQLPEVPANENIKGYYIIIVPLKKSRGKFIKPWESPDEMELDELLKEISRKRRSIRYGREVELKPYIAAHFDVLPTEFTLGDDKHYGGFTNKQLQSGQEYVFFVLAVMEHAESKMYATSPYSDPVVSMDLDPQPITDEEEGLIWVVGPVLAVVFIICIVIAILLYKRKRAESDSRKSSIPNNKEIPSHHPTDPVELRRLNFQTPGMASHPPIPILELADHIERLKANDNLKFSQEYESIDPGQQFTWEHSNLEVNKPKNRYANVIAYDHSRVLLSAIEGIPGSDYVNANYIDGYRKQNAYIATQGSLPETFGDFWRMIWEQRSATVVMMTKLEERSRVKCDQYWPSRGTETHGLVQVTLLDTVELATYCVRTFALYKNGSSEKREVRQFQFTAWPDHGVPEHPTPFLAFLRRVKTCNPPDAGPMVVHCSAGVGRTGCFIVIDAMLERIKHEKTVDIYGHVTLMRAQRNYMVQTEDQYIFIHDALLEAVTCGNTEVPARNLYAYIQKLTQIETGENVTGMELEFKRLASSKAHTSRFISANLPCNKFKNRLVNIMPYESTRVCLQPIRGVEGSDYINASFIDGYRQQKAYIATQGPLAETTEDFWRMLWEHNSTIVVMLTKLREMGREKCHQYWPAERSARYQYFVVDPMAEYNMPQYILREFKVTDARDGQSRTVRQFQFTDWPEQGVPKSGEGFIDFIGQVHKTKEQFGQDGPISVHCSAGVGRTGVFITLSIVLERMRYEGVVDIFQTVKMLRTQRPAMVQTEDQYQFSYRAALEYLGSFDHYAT
UniProt P23468, 1357-1612 limits assumed: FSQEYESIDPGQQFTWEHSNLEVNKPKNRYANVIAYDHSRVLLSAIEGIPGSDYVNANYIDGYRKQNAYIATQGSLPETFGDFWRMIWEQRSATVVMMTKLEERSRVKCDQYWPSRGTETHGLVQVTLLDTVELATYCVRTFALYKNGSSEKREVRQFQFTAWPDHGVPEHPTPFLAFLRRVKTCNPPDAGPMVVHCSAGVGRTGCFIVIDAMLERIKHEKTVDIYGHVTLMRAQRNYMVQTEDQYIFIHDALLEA

Columns and labels:
[1] = molecular target: T1, PTPRD (Homo sapiens, UniProt P23468); settings: read-out: prior estimate of IC50 (PTPRD); in vitro, prior estimate (ref 14); cited from earlier work
[2] = system: LAR-PTPs; assay: Preliminary LAR-PTP inhibition assay at pH 6.5; settings: pH 6.5, 100 μM compound, 30 min preincubation
[3] = cited from earlier work
[4] = system: Ptprd knockout mice; settings: cited from earlier work
[5] = molecular target: T1, PTPRD; assay: PTPRD inhibitor screen and IC50 at pH 7.5 and 37° C.; settings: read-out: IC50 (PTPRD)
[6] = system: wild-type mice; settings: cited from earlier work

## CCCCOc1cc2c(c(C=O)c1OC)CC(O)OC2=O (stereo not shown)
[1]
  IC50: 1000 to 3000 nM
[2]
  LAR-PTP inhibitory activity: inhibits LAR and PTPR^1 more potently than PTPR^δ
[3]
  stability in aqueous DMSO: stability concerns
[4]
  cocaine conditioned place preference and self-administration: but not in the Ptprd knockout mice
[5]
  IC50: 2000 nM
[6]; mice, linked to PTPR^δ inhibition
  cocaine reward in mice: reduce the cocaine reward in mice
[6]; wild-type mice
  cocaine conditioned place preference and self-administration: reduces cocaine conditioned place preference and self-administration
